Our source for the Ki values is patent US8791130B2, “Aminopyrimidine derivatives as LRRK2 modulators” (Genentech, Inc., priority 2011, dated 2014).

Protein sequences, listed by entry. Tags and fused reporters are not part of them. Residues count along the entry.
UniProt Q5S007, 970-2527 G2019S: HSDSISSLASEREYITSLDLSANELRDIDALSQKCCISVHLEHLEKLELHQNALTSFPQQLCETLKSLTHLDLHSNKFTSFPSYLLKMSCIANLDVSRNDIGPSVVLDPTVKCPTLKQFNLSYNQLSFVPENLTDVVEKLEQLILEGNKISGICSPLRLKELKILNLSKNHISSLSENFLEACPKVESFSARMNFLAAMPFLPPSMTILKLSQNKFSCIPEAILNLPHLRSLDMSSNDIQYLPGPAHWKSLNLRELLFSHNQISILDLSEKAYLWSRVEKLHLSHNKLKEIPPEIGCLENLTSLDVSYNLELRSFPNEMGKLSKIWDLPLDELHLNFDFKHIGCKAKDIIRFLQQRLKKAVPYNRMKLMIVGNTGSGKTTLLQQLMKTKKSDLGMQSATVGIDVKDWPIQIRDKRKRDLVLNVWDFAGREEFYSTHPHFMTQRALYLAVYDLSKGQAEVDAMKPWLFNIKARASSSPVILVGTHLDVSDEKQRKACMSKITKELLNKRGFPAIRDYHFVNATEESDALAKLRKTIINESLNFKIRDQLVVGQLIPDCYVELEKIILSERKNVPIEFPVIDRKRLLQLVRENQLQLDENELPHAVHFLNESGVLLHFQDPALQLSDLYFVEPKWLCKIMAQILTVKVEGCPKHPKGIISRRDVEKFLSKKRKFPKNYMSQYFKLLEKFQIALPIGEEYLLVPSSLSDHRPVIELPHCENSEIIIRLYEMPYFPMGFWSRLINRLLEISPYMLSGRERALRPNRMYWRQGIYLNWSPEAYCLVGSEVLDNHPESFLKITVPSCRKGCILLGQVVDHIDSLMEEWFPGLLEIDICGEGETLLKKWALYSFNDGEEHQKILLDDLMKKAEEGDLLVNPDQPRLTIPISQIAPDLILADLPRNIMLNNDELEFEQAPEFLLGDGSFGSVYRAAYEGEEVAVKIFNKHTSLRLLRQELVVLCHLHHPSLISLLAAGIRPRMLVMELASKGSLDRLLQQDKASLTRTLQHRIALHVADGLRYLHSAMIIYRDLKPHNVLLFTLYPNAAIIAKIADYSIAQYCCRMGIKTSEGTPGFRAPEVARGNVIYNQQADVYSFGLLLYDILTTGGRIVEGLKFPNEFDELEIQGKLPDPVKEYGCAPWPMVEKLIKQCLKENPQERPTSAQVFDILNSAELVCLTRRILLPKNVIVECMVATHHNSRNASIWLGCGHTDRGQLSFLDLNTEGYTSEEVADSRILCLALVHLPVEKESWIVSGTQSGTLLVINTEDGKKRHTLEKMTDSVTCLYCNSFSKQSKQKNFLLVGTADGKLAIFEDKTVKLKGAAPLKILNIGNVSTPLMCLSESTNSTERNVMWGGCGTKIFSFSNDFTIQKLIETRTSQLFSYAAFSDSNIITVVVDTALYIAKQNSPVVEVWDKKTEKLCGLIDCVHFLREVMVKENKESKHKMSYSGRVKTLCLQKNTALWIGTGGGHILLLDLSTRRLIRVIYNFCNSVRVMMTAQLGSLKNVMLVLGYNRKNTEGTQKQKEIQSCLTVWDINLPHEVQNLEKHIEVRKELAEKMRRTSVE

This experiment has as its target LRRK2 (Homo sapiens (Human), UniProt Q5S007, G2019S). As to the kind of experiment: In Vitro LRRK2 LabChip Assay (LRRK2 Ki). The format is biochemical. As to the method: In Vitro LRRK2 LabChip Assay This assay was used to determine a compound's potency in inhibiting activity of LRRK2 by determining, Kiapp, IC50, or percent inhibition values. In a polypropylene plate, LRRK2, fluorescently-labeled peptide substrate, ATP and test compound were incubated together. Using a LabChip 3000 (Caliper Life Sciences), after the reaction the substrate was separated by capillary electrophoresis into two populations: phosphorylated and unphosphorylated. The relative amounts of each were quantitated by fluorescence intensity. LRRK2 Ki was determined according to the equation: […]))). Ki values in Table 4 and elsewhere herein are shown in μM. Assay conditions and materials used were as follows: Final Assay Conditions: LRRK2 G2019S in 5 mM MgCl2: 5.2 nM (Invitrogen lot #567054A) […] LRRK2 12020T in 5 mM MgCl2: 25 nM (Invitrogen lot #43594) Substrate: 1 μM ATP: 130 μM […] Temperature: ambient […] ATP^app Kms: G2019S in 5 mM MgCl2: 130 μM G2019S in 1 mM MnCl2: 1 μM […] I2020T in 5 mM MgCl2: 14 μM Materials: Solid Support: Black 50 μL volume polypropylene 384 well plate (MatriCal cat #MP101-1-PP) Kinase: LRRK2 G2019S (Invitrogen cat #PV4882). • LRRK2 Wild type (Invitrogen cat #PV4874). Substrate: 5[…] Non-binding plate: 384 well clear V-bottom polypropylene plates (Greiner cat #781280). ATP: 10 mM ATP (Cell Signaling cat #9804). Triton X-100: Triton X-100. […]

Usually Ki stands for the dissociation constant of the complex between target and ligand, obtained from inhibition or displacement. Low readings indicate a stronger hold on the target, high ones a looser hold on the target.

`CNc1nc(Nc2ccc(-c3nncn3C)cc2OC)ncc1C(F)(F)F` [Compound 40, N2-(2-methoxy-4-(4-methyl-4H-1,2,4-triazol-3-yl)phenyl)-N4-methyl-5-(trifluoromethyl) pyrimidine-2,4-diamine] returned a Ki of 2 nM.
